Values quoted from earlier work, collected in patent US9585878B2, “Treatment of BDNF-related disorders using laquinimod” (TEVA PHARMACEUTICAL INDUSTRIES, LTD., priority 2009, dated 2017).

System: BDNF
Conditions: MS patients, even after 12 months of treatment; cited from earlier work

B1: interferon-β 1a: MS treatment cited from Sarchielli, 2007 (protein, UniProt P01574 22-187, looked up)
Interferon beta: MSYNLLGFLQRSSNFQCQKLLWQLNGRLEYCLKDRMNFDIPEEIKQLQQFQKEDAALTIYEMLQNIFAIFRQDSSSTGWNETIVENLLANVYHQINHLKTVLEEKLEKEDFTRGKLMSSLHLKRYYGRILHYLKAKEYSHCAWTIVRVEILRNFYFINRLTGYLRN
Increase in plasma BDNF levels: did not show an increase
